Measured values from US5574012A, “Analogs of hirudin having anti-platelet activity” (Merrell Pharmaceuticals Inc., priority 1995, dated 1996).
pIC50: −log10 of the molar value.

What follows are molecules tested against thrombin (Bos taurus, UniProt P00735) (assay: biochemical).
Set-up: species or system Bovine

Row | SMILES | pIC50
1 | CC[C@H](C)[C@H](NC(=O)[C@@H]1CCCN1C(=O)[C@H](CCC(=O)O)NC(=O)[C@H](Cc1ccc(OC)cc1)NC(=O)[C@H](CC(=O)O)NC(=O)CNC(=O)CCCCNC(=N)N)C(=O)N1CCC[C@H]1C(=O)N[C@@H](CCC(=O)O)C(=O)N[C@@H](CCC(=O)O)C(=O)N[C@@H](C)C(=O)N[C@@H](CC1CCCCC1)C(=O)N[C@H](CCC(=O)O)C(=O)O [Example 6, 5GP-Gly-Asp-Tyr(OCH3)-Glu-Pro-Ile-Pro-Glu-Glu-Ala-Cha-glu-OH] | 5.23
2 | CC[C@H](C)[C@H](NC(=O)[C@@H]1CCCN1C(=O)[C@H](CCC(=O)O)NC(=O)[C@H](Cc1ccc(OC)cc1)NC(=O)[C@H](CC(=O)O)NC(=O)CNC(=O)CCCCN)C(=O)N1CCC[C@H]1C(=O)N[C@@H](CCC(=O)O)C(=O)N[C@@H](CCC(=O)O)C(=O)N[C@@H](C)C(=O)N[C@@H](CC1CCCCC1)C(=O)N[C@H](CCC(=O)O)C(=O)O [Example 4, 5AP-Gly-Asp-Tyr(OCH3)-Glu-Pro-Ile-Pro-Glu-Glu-Ala-Cha-glu-OH] | 5.27
3 | CC[C@H](C)[C@H](NC(=O)[C@@H]1CCCN1C(=O)[C@H](CCC(=O)O)NC(=O)[C@H](Cc1c[nH]c2ccccc12)NC(=O)[C@H](CC(=O)O)NC(=O)CNC(=O)CCCCNC(=N)N)C(=O)N1CCC[C@H]1C(=O)N[C@@H](CCC(=O)O)C(=O)N[C@@H](CCC(=O)O)C(=O)N[C@@H](C)C(=O)N[C@@H](CC1CCCCC1)C(=O)N[C@H](CCC(=O)O)C(=O)O [Example 1] | 5.80
